From ChEMBL document CHEMBL1157218, “Cycloviolacin H4, a hydrophobic cyclotide from Viola hederaceae” (J Nat Prod, 2006) come the findings set out here.

The nature of the data set: Toxicity against human type A red blood cells assessed as hemolytic activity after 1hr. The data set is classed as cell-based, Erythrocyte. As to conditions: read-out: HD50.

Turning to `CC[C@H](C)[C@H](NC(=O)CN)C(=O)NCC(=O)N[C@@H](C)C(=O)N[C@H](C(=O)N[C@@H](CC(C)C)C(=O)N[C@@H](CCCCN)C(=O)N[C@H](C(=O)N[C@@H](CC(C)C)C(=O)N[C@H](C(=O)N[C@H](C(=O)NCC(=O)N[C@@H](CC(C)C)C(=O)N1CCC[C@H]1C(=O)N[C@@H](C)C(=O)N[C@@H](CC(C)C)C(=O)N[C@H](C(=O)N[C@@H](CO)C(=O)N[C@@H](Cc1c[nH]c2ccccc12)C(=O)N[C@H](C(=O)N[C@@H](CCCCN)C(=O)N[C@@H](CCCNC(=N)N)C(=O)N[C@@H](CCCCN)C(=O)N[C@@H](CCCNC(=N)N)C(=O)N[C@@H](CCC(N)=O)C(=O)N[C@@H](CCC(N)=O)C(N)=O)[C@@H](C)CC)[C@@H](C)CC)[C@@H](C)O)[C@@H](C)O)C(C)C)C(C)C` [MELITTIN], the HC50 at 1 h worked out at 940 nM.
